Reference: patent publication US20110183991A1, “5HT7 RECEPTOR LIGANDS AND COMPOSITIONS COMPRISING THE SAME” (LABORATORIOS DEL DR. ESTEVE, S.A., priority 2008, published 2011)
This is a selection: effects in other tests are not listed, and their absence says nothing.

Chains of the proteins cited; added tags and fusions are not shown.
UniProt P34969, whole entry: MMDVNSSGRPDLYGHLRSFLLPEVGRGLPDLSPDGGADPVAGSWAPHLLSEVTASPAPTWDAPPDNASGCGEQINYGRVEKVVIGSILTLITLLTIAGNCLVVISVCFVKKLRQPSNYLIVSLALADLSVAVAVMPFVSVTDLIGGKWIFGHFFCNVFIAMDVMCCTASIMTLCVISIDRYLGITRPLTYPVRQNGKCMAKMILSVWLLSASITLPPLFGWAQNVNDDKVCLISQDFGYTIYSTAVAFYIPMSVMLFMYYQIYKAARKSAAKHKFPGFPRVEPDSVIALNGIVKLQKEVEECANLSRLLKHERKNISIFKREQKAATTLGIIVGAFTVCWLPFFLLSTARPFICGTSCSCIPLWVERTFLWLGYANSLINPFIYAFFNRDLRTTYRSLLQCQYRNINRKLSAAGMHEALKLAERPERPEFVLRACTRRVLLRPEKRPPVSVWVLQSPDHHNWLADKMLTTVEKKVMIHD

Target: Cloned Human Serotonin Receptor, Subtype 7 (h5HT7), expressed in CHO cells (Homo sapiens, UniProt P34969)
Test: Radioligand binding assay, [125I]LSD, cloned human 5HT7 receptor on Flashplate
Conditions: 5HT7 binding experiments on the screening selection

O=c1[nH]c2ccccc2n1C1CCN(Cc2ccc(F)c(F)c2)CC1
affinity for the 5HT7 receptor (in words): good affinity
